# Experimental data taken from PubChem BioAssay AID602376 (Johns Hopkins Ion Channel Center, 2012).
# Sequences of proteins named here, by UniProt entry; tags and fusion partners are left off. A change or cut given only in a name is not applied to a line headed by its entry.
# UniProt Q9GZV3: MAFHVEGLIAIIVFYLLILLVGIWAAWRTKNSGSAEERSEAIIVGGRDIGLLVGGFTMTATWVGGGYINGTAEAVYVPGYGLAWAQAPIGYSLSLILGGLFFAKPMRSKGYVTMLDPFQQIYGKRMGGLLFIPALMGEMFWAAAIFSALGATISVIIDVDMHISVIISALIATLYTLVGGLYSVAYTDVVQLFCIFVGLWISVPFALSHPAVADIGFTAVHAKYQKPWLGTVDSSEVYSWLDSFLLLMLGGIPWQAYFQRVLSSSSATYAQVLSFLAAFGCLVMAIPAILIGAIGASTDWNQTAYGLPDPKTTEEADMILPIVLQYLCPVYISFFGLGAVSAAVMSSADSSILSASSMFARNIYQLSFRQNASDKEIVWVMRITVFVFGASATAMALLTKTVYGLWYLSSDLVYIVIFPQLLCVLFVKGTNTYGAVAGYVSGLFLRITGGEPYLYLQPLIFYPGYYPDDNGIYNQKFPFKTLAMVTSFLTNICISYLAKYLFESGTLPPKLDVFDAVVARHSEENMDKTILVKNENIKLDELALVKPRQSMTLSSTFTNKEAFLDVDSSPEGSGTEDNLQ
# The entries are a selection whose mix differs from that of the whole data set. Measured potencies and affinities stand elsewhere. Inconclusive results are not listed. Activity calls are given as the source filed them.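 Rule for the calls: active = raises choline transporter activity at one or more tested doses and gives a fitted dose-response curve; inconclusive = no clear call, values can overlap the other calls; inactive = no choline transporter activation at any dose, or no curve.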
# Biological target: High affinity choline transporter 1 (Homo sapiens) (UniProt Q9GZV3)
# Experiment: human choline transporter potentiators, potency – cell-based, 10-point CRC, membrane potential dye, dose response (AID 602376)
# Settings: HEK293-CHT, choline-induced membrane potential dye, cells express CHT LV-AA mutant; at 67 µM (top of the series)
smiles,measurement,value
CC1CCC(C(C)C)C(OP(=O)(Nc2ccccn2)c2ccccc2)C1 (stereo unspecified),percent activation,inactive: 71.4%
